Source: PubChem BioAssay AID623870 (Broad Institute, 2012)
The entries are a selection whose mix differs from that of the whole data set. The source made the active and inactive calls.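 The calls were made as follows: active = mean inhibition of replicates at least 50% and at least half of replicates each reaching 50%; inconclusive = half or more replicates reach 50% but mean below 50%; inactive = the rest.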

What follows are compounds tested against Transforming acidic coiled-coil-containing protein 3 (Homo sapiens) (UniProt Q9Y6A5) (assay: disruptors of ARNT/TACC3 protein interaction, primary screen, biochemical, AlphaScreen, single concentration (AID 623870;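 also: 0% = complete ARNT plus TACC3 wells and 100% = ARNT alone without TACC3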)). Conditions: AlphaScreen His-ARNT PAS-B/GST-TACC3 binding, luminescence; at 9.99 µM; hits give high values; TACC3 fragment carries E629A point mutation.
In the case of `COc1ccc(N)c([N+](=O)[O-])c1[N+](=O)[O-]`, the inhibition is reported as inactive: -1.66%. With `O=P(Nc1ccccn1)(c1ccc(Br)cc1)c1ccc(Br)cc1` the inhibition was inactive: 0.886%. In the case of `CN(C)C1(CNC(=O)c2ccc(Cl)c(S(N)(=O)=O)c2)CCCCC1`, the inhibition is reported as inactive: -6.25%. With `O=P(Nc1nc2ccccc2s1)(c1ccccc1)c1ccccc1` the inhibition was inactive: -10.2%. In the case of `C[C@H]1OP(=O)(Oc2ccccc2)[C@H](O)[C@H](O)[C@H]1N=[N+]=[N-]` (stereo not given in full), the inhibition is reported as inactive: -7.34%. `O=[N+]([O-])c1ccc(O)c(/C=N/Nc2ccc([N+](=O)[O-])cc2[N+](=O)[O-])c1` was tested, and the inhibition was inactive: -2.76%. In the case of `CC(=O)NC(SC(=S)N(C)C)C(Cl)(Cl)Cl` (stereo not given), the inhibition is reported as inactive: 7.11%. `O=[N+]([O-])c1ncn(CCn2cnc([N+](=O)[O-])n2)n1` was tested, and the inhibition was inactive: -32.2%. With `O=[As](O)(c1ccccc1)c1ccc(O)cc1` the inhibition was inactive: -0.875%. For `Nc1ccc([As](=O)(O)c2ccc([N+](=O)[O-])cc2)cc1`, the inhibition was inactive: -1.12%. In the case of `C(Cc1nn[nH]n1)Cc1nn[nH]n1`, the inhibition is reported as inactive: -5%. With `O=C(OC1CN2CCC1CC2)c1cccc(Cl)c1` (stereo not given) the inhibition was inactive: -2.97%. In the case of `CC(C)C(=O)NC(Sc1ccccc1)C(Cl)(Cl)Cl` (stereo not given), the inhibition is reported as inactive: -0.038%. With `O=P(Nc1nccs1)(c1ccccc1)c1ccccc1` the inhibition was inactive: 1.19%. With `c1nnnn1CCn1cnnn1` the inhibition was inactive: -3.09%. In the case of `O=P1(Nc2nc3ccc(Cl)cc3s2)COc2ccccc2O1` (stereo not given), the inhibition is reported as inactive: -2.11%. `CCOc1ccc(C2=NCC(CBr)S2)cc1` (stereo not given) was tested, and the inhibition was inactive: 1.5%. `CCc1cc(O)c([N+](=O)[O-])c(C)c1[N+](=O)[O-]` was tested, and the inhibition was inactive: -11.7%. In the case of `CC(C)(C)C(=O)NC(Sc1ccccc1)C(Cl)(Cl)Cl` (stereo not given), the inhibition is reported as inactive: 2.08%. `N#C/C(=C\c1ccc(N(CCBr)CCBr)cc1)C(N)=O` was tested, and the inhibition was inactive: -1.59%. `CC(=O)c1ccc(N2CC2c2ccncc2)cc1` (stereo not given) was tested, and the inhibition was inactive: -1.35%. With `COC(=O)C1(C)COP(=O)(NCc2ccccc2)OC1` (stereo not given) the inhibition was inactive: 2.64%. `Cc1ccccc1CN(C)C(=O)COC(=O)C(O)(c1ccccc1)c1ccccc1` was tested, and the inhibition was inactive: -4.44%. With `C[C@@H]1C=CCP(=O)(Oc2ccccc2)O1` (stereo not given in full) the inhibition was inactive: -2.16%. With `C[C@H]1OP(=O)(Oc2ccccc2)C[C@@H]2O[C@@H]21` (stereo not given in full) the inhibition was inactive: -0.886%. In the case of `CC(=O)Nc1ccc([As](=O)(O)O)c(O)c1`, the inhibition is reported as inactive: -3.64%. `CC(=O)Nc1ccc(Oc2c([N+](=O)[O-])cc([N+](=O)[O-])cc2[N+](=O)[O-])cc1` was tested, and the inhibition was inactive: 6.43%. `CCNC(=S)/N=C(\N)N[N+](=O)[O-]` was tested, and the inhibition was inactive: -8.76%. In the case of `O=C(NC1CCS(=O)(=O)C1)NP(=S)(Oc1ccccc1)Oc1ccccc1` (stereo not given), the inhibition is reported as inactive: -7.73%. `c1ccc(-c2nn[nH]n2)c(-c2nn[nH]n2)c1` was tested, and the inhibition was active: 66.3%. `Cc1ccc(NP(=O)(Oc2cccc(C)c2)Oc2cccc(C)c2)nc1` was tested, and the inhibition was inactive: 21.8%. In the case of `O=P1(N(CCCl)CCCl)OCCC2CCCCN21` (stereo not given), the inhibition is reported as inactive: 9.12%. In the case of `COC(=O)c1cc2c(s1)N=C(c1ccccc1)N(C)P2(=O)N1CCOCC1` (stereo not given), the inhibition is reported as inactive: 1.92%. In the case of `CC(=O)NC(SC(=S)N(CC(C)C)CC(C)C)C(Cl)(Cl)Cl` (stereo not given), the inhibition is reported as inactive: 17.9%. `Cc1ccc(OP(=O)(Nc2ccccn2)Oc2ccc(C)cc2)cc1` was tested, and the inhibition was inactive: -1.9%. For `O=C(OC1CN2CCC1CC2)c1ccccc1` (stereo not given), the inhibition was inactive: -2.23%. In the case of `CCC(=O)N1C2C3N(C(=O)CC)C1C1N(C(=O)CC)C(C(N1C(=O)CC)N3C(=O)CC)N2C(=O)CC`, the inhibition is reported as inactive: -0.634%. `Cc1ccccc1OP(=O)(Nc1ccccn1)Oc1ccccc1C` was tested, and the inhibition was inactive: -3.12%. `CC(NC(=O)COC(=O)C(O)(c1ccccc1)c1ccccc1)c1ccccc1` (stereo not given) was tested, and the inhibition was inactive: -0.01%. With `CN(C)C(=O)Oc1noc2ccccc12` the inhibition was inactive: -0.958%. With `O=c1c2cc([N+](=O)[O-])ccc2[nH]c2c([N+](=O)[O-])cc([N+](=O)[O-])cc12` the inhibition was inactive: -13.6%. In the case of `O=C(O)c1ccccc1[As](=O)(O)O`, the inhibition is reported as inactive: -9.51%. With `CC(=O)Nc1ccc([As](=O)(O)O)cc1` the inhibition was inactive: -9.46%. `CCCC1OP(N)(=O)OCC1CC` (stereo not given) was tested, and the inhibition was inactive: -3.48%. `O=P(Nc1nc2ccc(Cl)cc2s1)(c1ccccc1)c1ccccc1` was tested, and the inhibition was inactive: 10%. With `CCOP(=O)(Nc1ccccc1)OCC` the inhibition was inactive: -11.1%. In the case of `Cc1cc(SC(NC(=O)c2ccc(F)cc2)C(Cl)(Cl)Cl)ncn1` (stereo not given), the inhibition is reported as inactive: -5.89%. With `Cc1ccc(NP(=O)(Oc2ccccc2F)Oc2ccccc2F)nc1` the inhibition was inactive: -5.38%. With `CN(C(=O)Cc1ccc(Cl)c(Cl)c1)[C@H]1CCCC[C@@H]1N1CCCC1` the inhibition was inactive: -1.85%. In the case of `CCN(N=Nc1nonc1N)c1nonc1N`, the inhibition is reported as inactive: -2.94%. `Nc1cccc2ccc([As](=O)(O)O)cc12` was tested, and the inhibition was inactive: 19.9%. `NC(=O)c1cc([N+](=O)[O-])cc([N+](=O)[O-])c1N` was tested, and the inhibition was inactive: 7.58%. `CN(C(=O)Cc1ccc(Cl)c(Cl)c1)[C@H]1CCCC[C@H]1N1CCCC1` was tested, and the inhibition was inactive: -2.42%. `COc1ccccc1OP(=O)(Nc1ccc(C)cn1)Oc1ccccc1OC` was tested, and the inhibition was inactive: -1.79%. With `Clc1ccc(Cl)c(NC2=NCC(CBr)S2)c1` (stereo not given) the inhibition was inactive: -14.7%. In the case of `CN1CCCC(OC(=O)C(c2ccccc2)c2ccccc2)C1` (stereo not given), the inhibition is reported as inactive: -1.96%. For `CC(C)CC(=O)NC(Sc1ccc(Cl)cc1)C(Cl)(Cl)Cl` (stereo not given), the inhibition was inactive: -0.738%. `Nc1cc(N)c2nonc2c1[N+](=O)[O-]` was tested, and the inhibition was inactive: 19.4%. With `Oc1ccccc1CNc1ccccn1` the inhibition was inactive: -9.93%. For `O=C(NC(Sc1ccncn1)C(Cl)(Cl)Cl)c1ccccc1` (stereo not given), the inhibition was inactive: 3.18%. `COc1ccc(C2=NCC(CBr)S2)cc1` (stereo not given) was tested, and the inhibition was inactive: -1.41%. In the case of `O=[N+]([O-])c1cccc2n[nH]nc12`, the inhibition is reported as inactive: -12.1%. `CC(=O)N1C2C3N(C(C)=O)C1C1N(C(C)=O)C(C(N1C(C)=O)N3C(C)=O)N2C(C)=O` was tested, and the inhibition was inactive: -7.37%. With `Cc1ccc(NP(=O)(Oc2ccccc2)Oc2ccccc2)nc1` the inhibition was inactive: -5.63%. `CCc1nc2c(n1)c1c(non1O)c1c2no[n+]1[O-]` was tested, and the inhibition was inactive: -30.5%. `O=[N+]([O-])c1cc([N+](=O)[O-])c(CCNc2ccccc2)c([N+](=O)[O-])c1` was tested, and the inhibition was inactive: 8.27%. For `C[N+]1=C2C=CC=CC=C2SC12C([N+](=O)[O-])=CC([N+](=O)[O-])=C[C-]2[N+](=O)[O-]` (stereo not given), the inhibition was active: 67.1%. With `CCN(/C(=N/P(=O)(N1CCOCC1)N1CCOCC1)N1CCOCC1)c1ccc(OC)cc1` the inhibition was inactive: -8.92%. With `CC(C)=N/N=C(\N)N[N+](=O)[O-]` the inhibition was inactive: -12.3%. `CC1CCN(C(=O)Oc2c(Cl)cc(Cl)c3cccnc23)CC1` was tested, and the inhibition was inactive: -8.16%. For `O=P1(N(CCCl)CCCl)OCCCS1` (stereo not given), the inhibition was inactive: -5.48%. `O=C(Nc1cc([As](=O)(O)O)ccc1O)c1ccccc1` was tested, and the inhibition was inactive: -0.599%. `CC(C)(C)C(=O)NC(Sc1ccncn1)C(Cl)(Cl)Cl` (stereo not given) was tested, and the inhibition was inactive: -2.31%. With `O=[N+]([O-])c1ncn(CCn2ncnc2[N+](=O)[O-])n1` the inhibition was inactive: 27.1%. For `O=[N+]([O-])c1cccc(NC2=NCC(CBr)S2)c1` (stereo not given), the inhibition was inactive: -0.056%. `COC(=O)C1(C)COP(=O)(Nc2ccccc2)OC1` (stereo not given) was tested, and the inhibition was inactive: -0.46%. In the case of `O=C(O)CNc1ccc([As](=O)(O)O)cc1`, the inhibition is reported as inactive: -1.05%. In the case of `CC1CCNP(=O)(N(CCCl)CCCl)O1` (stereo not given), the inhibition is reported as inactive: -1.69%. With `CCOC(=O)Nc1ccc([As](=O)(O)O)c(O)c1` the inhibition was inactive: -8.55%. For `CCCCOc1ccc(C(=O)NCC2(N3CCCCC3)CCCCC2)cc1OC`, the inhibition was inactive: 3.48%. For `Cc1cc(SC(NC(=O)c2ccccc2)C(Cl)(Cl)Cl)nc(C(C)C)n1` (stereo not given), the inhibition was inactive: -6.93%. With `CCOC(=O)Nc1cccc([As](=O)(O)O)c1` the inhibition was inactive: 29.5%. In the case of `O=[N+]([O-])c1ccc(Nc2ccc(Oc3ccc([N+](=O)[O-])cc3[N+](=O)[O-])cc2)c([N+](=O)[O-])c1`, the inhibition is reported as inactive: 4.68%. With `O=P(Nc1ccccn1)(c1cccc2ccccc12)c1cccc2ccccc12` the inhibition was inactive: -1.12%. With `Cc1cc(SC(NC=O)C(Cl)(Cl)Cl)ncn1` (stereo not given) the inhibition was inactive: -3.45%. `COP1(=S)c2c(C)nn(CCC#N)c2N=C(c2ccc(F)cc2)N1C` (stereo not given) was tested, and the inhibition was inactive: 3.23%. With `O=C(COc1ccccc1)OC1CN2CCC1CC2` (stereo not given) the inhibition was inactive: -5.31%. `O=C(Nc1ccncc1[N+](=O)[O-])c1ccc([N+](=O)[O-])cc1[N+](=O)[O-]` was tested, and the inhibition was inactive: 10.7%. In the case of `CCOC(=O)c1ccc(NC(=O)C(C)(CCl)SC)cc1` (stereo not given), the inhibition is reported as inactive: -2.6%. In the case of `O=C(OC1CN2CCC1CC2)c1cccc([N+](=O)[O-])c1` (stereo not given), the inhibition is reported as inactive: -3.02%. For `CCC(C)N(CC(C)C)C(=S)SC(NC(C)=O)C(Cl)(Cl)Cl` (stereo not given), the inhibition was inactive: 12.7%. With `O=C(OC1CN2CCC1CC2)C12CC3CC(CC(C3)C1)C2` (stereo not given) the inhibition was inactive: -4.09%. For `Cc1c2c(nc3ccccc13)SC(C(Cl)Cl)C2` (stereo not given), the inhibition was inactive: -9.34%. `COc1ccc2nc(NP(=O)(c3ccccc3)c3ccccc3)sc2c1` was tested, and the inhibition was inactive: 2.74%. With `COc1cc(I)ccc1[As](=O)(O)O` the inhibition was inactive: 14.5%. For `COc1ccc(CN2/C(=N\P(=O)(Oc3ccccc3)Oc3ccccc3)Cc3ccccc3C2C2CC2)cc1` (stereo not given), the inhibition was inactive: 0.185%. With `O=P1(N(CCCl)CCCl)Nc2ccccc2N1` the inhibition was inactive: 4.17%. For `O=P1(N(CCCl)CCCl)OCCCN1CCCl` (stereo not given), the inhibition was inactive: -9.74%. `COc1ccc(N/C(=N/P(=O)(N2CCOCC2)N2CCOCC2)N2CCOCC2)cc1` was tested, and the inhibition was inactive: -4.57%. `O=[N+]([O-])c1cc(Oc2ccc([N+](=O)[O-])cc2C(F)(F)F)cc([N+](=O)[O-])c1` was tested, and the inhibition was inactive: -4.13%.
